Test [1] can be described thus: Published clinical trial data of RA drugs: ACR20/ACR50/ACR70 response, drug vs placebo. It is filed as in vivo, human. The text has this:
In another embodiment, American College of Rheumatoid (ACR) scoring system and DAS28 scoring system are used to determine the extent of improvement in the RA disease symptoms on treatment with a drug.
In another embodiment, the ACR scoring system involves three main scores: ACR20 score pertaining to 20% improvement in the disease, ACR50 score pertaining to 50% improvement in the disease and ACR70 score pertaining to 70% improvement in the disease. Clinically, the calculation of the ACR score is dependent on inputs from a patient Health Assessment Questionnaire (HAQ) and analysis of the percentage improvement in the RA disease phenotypes. […]

For test [2] the following is noted: Type: Drug; published clinical trial data; cited from earlier work.
[3] abbreviates: Type: Diff. (drug minus placebo), * significant difference > 15%.

ABATACEPT: in test [1] (setting [3]), the “ACR20 Diff.” value stood at 15.5%, the “ACR50 Diff.” value is listed as 18* % and the “ACR70 Diff.” value came out at 12.1%. Besides, the “Highest Significant Clinical Disease Remission Score” value in test [1] (highest ACR level with significant difference > 15% over placebo) was “ACR50 (ACR50 score pertaining to 50% improvement in the disease)”. Moreover, in test [2], the ACR20 is listed as 60.8%, the ACR50 was 45.3% and the ACR70 is 17.6%.

These data come from US20150302167A1, “SYSTEM AND METHOD FOR DEVELOPMENT OF THERAPEUTIC SOLUTIONS” (CELLWORKS RESEARCH INDIA PRIVATE LIMITED, priority 2012, published 2015).
